Publication PMC2699104 (The Journal of General Physiology, 2009)

Assays:
Experiment in all cases: saturation radioligand binding, membranes
[1] = biological target: T1, M1R-CFP (M1R-Cerulean) (Mus musculus, UniProt P12657)
T1 sequence (P12657 1-460): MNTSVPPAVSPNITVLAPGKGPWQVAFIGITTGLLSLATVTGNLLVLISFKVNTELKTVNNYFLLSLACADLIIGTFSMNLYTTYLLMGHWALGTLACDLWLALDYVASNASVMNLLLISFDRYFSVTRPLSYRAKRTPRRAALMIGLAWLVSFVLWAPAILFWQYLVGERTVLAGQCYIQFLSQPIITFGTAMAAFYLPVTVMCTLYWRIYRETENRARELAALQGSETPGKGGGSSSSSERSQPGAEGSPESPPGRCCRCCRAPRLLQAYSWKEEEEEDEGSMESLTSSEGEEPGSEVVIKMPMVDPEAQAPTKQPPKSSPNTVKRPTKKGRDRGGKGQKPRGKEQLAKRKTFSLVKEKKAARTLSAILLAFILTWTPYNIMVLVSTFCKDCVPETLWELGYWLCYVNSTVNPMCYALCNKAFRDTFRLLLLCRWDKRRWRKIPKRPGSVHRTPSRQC

[2] = biological target: T2, wild-type M1R (M1 muscarinic receptor) (Mus musculus, UniProt P12657)
T2 sequence (P12657 1-460): T1 sequence (P12657 1-460)

[3] = biological target: T3, M1R-YFP-CFP (M1R-EYFP-Cerulean) (Mus musculus, UniProt P12657, DEL224-357)
T3 sequence (P12657 1-223): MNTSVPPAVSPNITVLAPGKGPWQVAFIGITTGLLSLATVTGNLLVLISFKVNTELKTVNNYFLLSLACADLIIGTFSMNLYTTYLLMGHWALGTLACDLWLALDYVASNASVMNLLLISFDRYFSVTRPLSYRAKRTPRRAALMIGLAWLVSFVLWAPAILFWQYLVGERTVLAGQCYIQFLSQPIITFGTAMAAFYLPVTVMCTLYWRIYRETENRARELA
T3 sequence (P12657 358-460): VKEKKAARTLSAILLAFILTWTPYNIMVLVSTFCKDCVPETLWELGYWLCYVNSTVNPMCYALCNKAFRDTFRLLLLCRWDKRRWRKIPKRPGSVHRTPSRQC

C[N+]1(C)[C@@H]2C[C@@H](OC(=O)[C@H](CO)c3ccccc3)C[C@H]1[C@@H]1O[C@@H]12 [3H-NMS]
Kd [1]: 0.94 ± 0.4 nM
Kd [2]: 0.74 ± 0.58 nM
Kd [3]: 0.76 ± 0.51 nM
